Measured values: US9284330B2 (priority 2011, dated 2016)

What was measured:
[1] = test system: tau protein phosphorylation; experiment: Intracellular tau protein phosphorylation of primary neurons (Western blot); type: cell-based; conditions: 1 μM
[2] = test system: primary cortical neuron cells; experiment: Effect of the compounds on the morphology of neurons (microscopy)

Compound: CCOC(=O)C1=C(C)Nc2nc3c(c(N)c2C1c1ccc(OC)cc1)CCCC3 (centres unmarked)
- Cell death seen in Western blot samples [1]: most cells died

Compound: CCOC(=O)C1=C(C)Nc2nc3c(c(N)c2C1c1ccc([N+](=O)[O-])cc1)CCCC3 (centres unmarked)
- Cell death seen in Western blot samples [1]: most cells died

Compound: CCOC(=O)C1=C(C)Nc2nc3c(c(N)c2C1c1ccc(C)cc1)CCCC3 (centres unmarked)
- Effect on the morphology of neurons ([2]; 1 μM): no morphology of neurons was observed
- Effect on the morphology of neurons ([2]; 0.1 and 1 μM, 24 h after administration): neuron axon/dendrite was broken up and the cells was crimpled
- Cell death seen in Western blot samples [1]: most cells died
